Laboratory results: patent US9410137B2, “Compositions and methods for modulating hemostasis” (The Children's Hospital of Philadelphia, priority 2005, dated 2016)

Experiments:
[1] = FXa chromogenic activity of rFX variants after activation with TF-FVIIa; type: biochemical
Procedure: The FX mutants were generated using the Quick-change site-directed mutagenesis kit (Stratagene) and the entire FX cDNA was sequenced to verify the identity of the product. The various plasmids were transiently transfected into HEK 293 cells using Lipofectamine-2000. 48 hr post-transfection, media was collected and FX antigen levels were determine using a FX-specific ELISA and FXa activity was assessed by chromogenic assay prior to activation by RVV-X or by tissue factor-FVIIa.

[2] = Inhibition of FXa and prothrombinase by Pefabloc tPa/Xa; type: biochemical; settings: read-out: Ki ± SD Pefabloc tPa/Xa
Text: (§1) Enzyme concentrations will be determined by active-site titration with ρ-nitrophenyl ρ-guanidinobenzoate (IIa) or fluorescein mono-ρ-guanidinobenzoate (FXa) (26, 27). FXa chromogenic substrate activity, in the presence or absence of various inhibitors, will be measured from initial rates of hydrolysis of Spectrozyme FXa, S-2222, or S-2765 as previously described (14). Kinetic parameters will be determined by least-squares fitting of the initial rate data to appropriate equations.

[3] = Inhibition of FXa and prothrombinase by para-amino benzamidine; type: biochemical; settings: read-out: Ki ± SD Para-amino benzamidine
Text: as §1

hemophilia B plasma = assay: aPTT clotting time of hemophilia B plasma spiked with FXa; type: biochemical; settings: 0.1 nM in hemophilia B plasma
Procedure: Based on the observation that the zymogen-like FXa derivatives have poor reactivity with active-site directed probes and inhibitors in the absence of FVa, but apparently near normal activity when the variants are assembled in prothrombinase, we next evaluated the activity of FXaI16L (FXaI235L) in a plasma environment. Hemophilic A (data not shown) or B plasma was spiked with wild-type FXa to correct the clotting time (aPTT) of these plasmas; 0.1 nM wtFXa gave a clotting time of ˜32 sec. […] Next we monitored the half-life of wild-type FXa and FXaI16L (FXaI235L) in hemophilia B plasma. The proteins were added to HB plasma and at different time points, an aliquot of the mixture was withdrawn and assayed in an aPTT-based assay. […] Similar results were found with hemophilia A plasma.

[4] = tested on: hemophilia B mice (Balb c); assay: Tail-clip assay, blood loss in hemophilia B mice; type: in vivo; settings: 450 μg/kg; 10-min period after tail sectioning
Procedure: FIG. 8. Hemostatic assessment following tail-clip assay in hemophilia B mice. Blood loss is measured by the hemoglobin content of the saline solution by A525 post-injury. The number of mice (Balb c) are; wild-type (n=7); HB-PBS (n=6); and HB-FXaI16L (n=7).
To further test the effectiveness of FXaI16L (FXaI235L) in vivo, we examined whether this molecule could correct the bleeding time of hemophilia B mice following injury to the tail (Schlachterman, et. al., 2005, J. Thromb. Haemost., 3, 2730-2737). Blood loss was measured during a 10-min period after sectioning the distal part of the tail. In this type of assay, blood loss is minimal in normal wild-type Balb-c mice (n=7) and quite substantial in PBS injected (n=6) hemophilia B mice (Balb c) following the tail injury (FIG. 8).

Question: Which results are given for “rFXa^I16L: factor X/Xa variant, Ile16 (position 235 in SEQ ID NO: 1) replaced by Leu”?
Answer: FXa Activity ([1]; activation of FX with TF-FVIIa, compared to FXa standard curve): 0.572 nM; % wt (FXa activity) ([1]; activation with TF-FVIIa, adjusted for antigen levels): 6.57%; Ki ([2]; Prothrombinase): 0.209 ± 0.005 µM; Ki ([2]; free Factor Xa): 1.7 ± 0.065 µM; Ki ([3]; Prothrombinase): 143 ± 9 µM; Ki ([3]; free Factor Xa): 726 ± 40 µM; clotting time (aPTT) (hemophilia B plasma): ~42 s; total blood loss following tail injury [4]: significantly reduced the total amount of blood loss
